Values of other authors, collected in US20200101067A1 (IRR, Inc., priority 2013, published 2020).

Tested on: histamine induced wheal and flare
Settings: levocetirizine 5 mg per day vs fexofenadine 180 mg per day

Structure (SMILES): O=C(O)COCCN1CCN([C@H](c2ccccc2)c2ccc(Cl)cc2)CC1 [Levocetirizine, levocetirizine]
- Potency/effectiveness in histamine induced wheal and flare: most potent of the five modern generation antihistamines
- Potency/effectiveness in histamine induced wheal and flare (listed as levocetirizine): more effective than fexofenadine

Read-outs that look alike come from different tables or passages of the source.
